Measurements: article PMC9119080 (European journal of medicinal chemistry, 2021)

Conditions: human, microsomes, 1 h

Remaining (NCF = 60min): 96.7%
Remaining (T = 60min): 0.0%
SMILES: O=C(O)Cc1ccccc1Nc1c(Cl)cccc1Cl [Diclofenac]
